# pEC50: −log10 of the molar value. Like-named read-outs stand apart in the source and are kept apart here.
# Protein sequences, listed by entry. Tags and fused reporters are not part of them. Lines headed by an entry give the natural chain unless they say otherwise; changes in a name come on top.
# UniProt P35372: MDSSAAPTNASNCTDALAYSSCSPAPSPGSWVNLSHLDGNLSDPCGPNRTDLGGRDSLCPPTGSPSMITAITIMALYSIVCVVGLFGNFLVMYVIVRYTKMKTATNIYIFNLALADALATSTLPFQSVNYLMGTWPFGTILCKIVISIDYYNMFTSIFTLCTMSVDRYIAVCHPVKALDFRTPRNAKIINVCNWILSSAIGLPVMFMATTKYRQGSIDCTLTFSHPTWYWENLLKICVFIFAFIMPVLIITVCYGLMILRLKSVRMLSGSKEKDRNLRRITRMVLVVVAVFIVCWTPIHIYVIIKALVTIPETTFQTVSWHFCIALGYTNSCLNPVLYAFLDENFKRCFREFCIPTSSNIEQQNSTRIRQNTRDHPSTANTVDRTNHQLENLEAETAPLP
# Assays:
# human MOR [1] = biological target: T1, human MOR (Homo sapiens, UniProt P35372); conditions: for effect on basal 35S-GTPγS binding activity: 1 μM drug, 1 mM MgCl2, no agonist; for pEC50: read-out: EC50 (35S-GTPγS binding dose-response)
# human MOR [2] = biological target: T1, human MOR; assay: forskolin stimulated cAMP levels in intact HEK-MOR cells; assay type: cell-based; conditions: 1 μM drug, 100 μM forskolin
substance,measurement,setting,value
β-chlornaltrexamine,effect on basal 35S-GTPγS binding activity,human MOR [1]; morphine-pretreated HEK-MOR membranes,decreased
same,pEC50,human MOR [1]; morphine-pretreated HEK-MOR cell membranes,7.23
same,pEC50,human MOR [1]; naive HEK-MOR cell membranes,7.54
same,effect on basal 35S-GTPγS binding activity,human MOR [1]; untreated HEK-MOR membranes,decreased
same,effect on forskolin stimulated cAMP levels,human MOR [2]; morphine-pretreated HEK-MOR cells,increased
same,effect on forskolin stimulated cAMP levels,human MOR [2]; untreated HEK-MOR cells,increased

# Reference: US6713488B2 (priority 2000, dated 2004)
